## Ab-95 light chain CDR variants: yeast mating affinities

Target: peptide PDVDLGDISGINAS, taken from heptad repeat 2 (HR2) of SARS-CoV-2 spike.

Each scFv is VH, a (GGGGS)3 linker, VL, as in the parent Ab-95, and differs from it in the CDRs of the light chain only.
VH: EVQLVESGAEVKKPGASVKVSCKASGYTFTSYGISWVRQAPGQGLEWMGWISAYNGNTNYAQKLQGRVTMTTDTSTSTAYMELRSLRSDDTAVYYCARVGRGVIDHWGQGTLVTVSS
VL: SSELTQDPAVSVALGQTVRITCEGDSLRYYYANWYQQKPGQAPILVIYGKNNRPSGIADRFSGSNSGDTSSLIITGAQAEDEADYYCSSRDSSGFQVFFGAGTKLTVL

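The parent was found by panning a naive human phage display library on the peptide. In library AAYL52, one, two or three CDR residues were substituted; doubles and triples were drawn at random. The scFvs were displayed on barcoded MATa yeast, the peptide on MATalpha yeast. Mating (16 h, 30 °C) was followed by selection of diploids and sequencing of their barcodes. Read counts were normalised to the haploid input and turned into Kd by a linear fit to BCL2-family pairs of known affinity, for each replicate. The assay was run in three technical replicates.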

Positions count from residue 1 of the parent VL; E23D puts D in place of E.
All variants listed here change E23 of the VL, counted from its first residue.
Scale: log10 of Kd in nM, estimated from mating counts; low values are strong binders.
The mean shown is taken over the replicates in which the pair was detected.

For E23D/A32N/K50P, the assay gave 4.32 (1 of 3 replicates). The variant E23P/G24S/S55G showed 2.33 (3 of 3 replicates). The variant E23Y/N51D/P54M showed 2.57 (3 of 3 replicates). For E23H/R53V, the assay gave 2.39 (3 of 3 replicates). For E23F/K50N/R90F, the assay gave 3.45 (3 of 3 replicates). For E23I/N33K, the assay gave 3.24 (3 of 3 replicates). The variant E23I/P54Q/V97I showed 3.05 (3 of 3 replicates).

The variant E23K/L27A/F98P gave 4.30 (1 of 3 replicates). The variant E23R/G94S/V97P gave 3.51 (3 of 3 replicates). The variant E23G/D91A/F95S showed 2.57 (3 of 3 replicates). For E23C/Y31F/V97I, the assay gave 4.05 (2 of 3 replicates). With E23K/S26N/R28A the result was 2.59 (3 of 3 replicates). With E23W/K50A/R53P the result was 4.22 (3 of 3 replicates). The variant E23T/Y31N/A32D showed 3.65 (2 of 3 replicates).

With E23Y/R90P/S92P the result was 3.21 (3 of 3 replicates). The variant E23R/A32E/Q96H showed 3.14 (1 of 3 replicates). The variant E23D/S26R gave 3.43 (3 of 3 replicates). For E23Q/G49V/S88V, the assay gave 5.00 (2 of 3 replicates). With E23M/R53P/F98P the result was 3.95 (2 of 3 replicates). With E23A/K50T/P54L the result was 2.63 (3 of 3 replicates). The variant E23K/S88C/G94A gave 2.29 (3 of 3 replicates).

The variant E23Q/Y30P/G49L showed 2.91 (2 of 3 replicates). The variant E23T/K50G/F98P gave 1.81 (3 of 3 replicates). With E23A/L27T/Y29R the result was 3.65 (3 of 3 replicates). The variant E23Q/G24T/Y31H showed 2.49 (3 of 3 replicates). The variant E23G/S26G gave 1.95 (3 of 3 replicates). For E23I/S26G/F95G, the assay gave 3.06 (3 of 3 replicates). With E23G/L27H/V97E the result was 3.71 (3 of 3 replicates).

The variant E23W/F95V/Q96F gave 3.18 (1 of 3 replicates). The variant E23L/G24C/P54L showed 4.00 (2 of 3 replicates). With E23G/Y30A/F95G the result was 1.51 (3 of 3 replicates). The variant E23I/L27W/V97P gave 4.78 (2 of 3 replicates). The variant E23S/N51P/S93Y gave 3.25 (1 of 3 replicates). With E23H/S26R/N33G the result was 2.04 (3 of 3 replicates). With E23M/K50N/S89R the result was 3.42 (3 of 3 replicates).

For E23T/N33R/Q96A, the assay gave 3.09 (3 of 3 replicates). The variant E23L/R28S/G49D showed 3.62 (3 of 3 replicates).

Excerpt, the first 4 entries:

Variant E23D/A32N/K50P showed 4.32 (1 of 3 replicates).
Variant E23P/G24S/S55G showed 2.33 (3 of 3 replicates).
Variant E23Y/N51D/P54M showed 2.57 (3 of 3 replicates).
Variant E23H/R53V showed 2.39 (3 of 3 replicates).

Parent in this assay: reference entry 2.31, copy in this library 2.25.
Empty control strains, which show no peptide, gave a signal in 28% of pairings with library AAYL52; the median was 3.91 and 95% of these signals were weaker than 2.90. No background was subtracted.

The measurements come from Engelhart et al. 2022 (doi:10.1038/s41597-022-01779-4) through the FLAb antibody collection.